This note sets out measurements from ChEMBL document CHEMBL5226302, “Small-Molecule Inhibitors Targeting the Canonical WNT Signaling Pathway for the Treatment of Cancer” (J Med Chem, 2021).

Chains of the proteins cited; added tags and fusions are not shown. Lines headed by an entry give the natural chain unless they say otherwise; changes in a name come on top.
UniProt P12830: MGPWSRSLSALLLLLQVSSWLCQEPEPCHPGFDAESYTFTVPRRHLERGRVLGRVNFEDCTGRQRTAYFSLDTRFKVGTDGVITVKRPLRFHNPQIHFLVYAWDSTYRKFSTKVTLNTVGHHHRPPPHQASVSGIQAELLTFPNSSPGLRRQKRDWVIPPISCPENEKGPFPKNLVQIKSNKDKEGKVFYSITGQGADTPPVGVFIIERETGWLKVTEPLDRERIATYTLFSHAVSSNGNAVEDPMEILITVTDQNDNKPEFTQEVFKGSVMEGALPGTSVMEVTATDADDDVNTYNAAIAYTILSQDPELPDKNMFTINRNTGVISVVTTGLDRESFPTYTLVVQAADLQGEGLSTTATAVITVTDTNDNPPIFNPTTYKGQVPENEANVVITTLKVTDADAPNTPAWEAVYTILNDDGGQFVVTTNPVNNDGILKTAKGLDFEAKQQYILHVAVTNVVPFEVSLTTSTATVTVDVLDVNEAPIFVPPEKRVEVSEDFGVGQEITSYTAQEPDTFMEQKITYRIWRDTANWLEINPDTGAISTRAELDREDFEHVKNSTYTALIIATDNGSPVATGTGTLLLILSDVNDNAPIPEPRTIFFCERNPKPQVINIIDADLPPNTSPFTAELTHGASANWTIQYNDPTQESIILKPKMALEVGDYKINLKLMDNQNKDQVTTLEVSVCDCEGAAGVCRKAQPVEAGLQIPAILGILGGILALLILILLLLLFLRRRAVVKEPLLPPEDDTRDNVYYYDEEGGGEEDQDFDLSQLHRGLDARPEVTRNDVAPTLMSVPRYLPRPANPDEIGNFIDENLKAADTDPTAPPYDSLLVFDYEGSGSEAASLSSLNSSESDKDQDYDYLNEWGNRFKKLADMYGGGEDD
UniProt P35222, whole entry: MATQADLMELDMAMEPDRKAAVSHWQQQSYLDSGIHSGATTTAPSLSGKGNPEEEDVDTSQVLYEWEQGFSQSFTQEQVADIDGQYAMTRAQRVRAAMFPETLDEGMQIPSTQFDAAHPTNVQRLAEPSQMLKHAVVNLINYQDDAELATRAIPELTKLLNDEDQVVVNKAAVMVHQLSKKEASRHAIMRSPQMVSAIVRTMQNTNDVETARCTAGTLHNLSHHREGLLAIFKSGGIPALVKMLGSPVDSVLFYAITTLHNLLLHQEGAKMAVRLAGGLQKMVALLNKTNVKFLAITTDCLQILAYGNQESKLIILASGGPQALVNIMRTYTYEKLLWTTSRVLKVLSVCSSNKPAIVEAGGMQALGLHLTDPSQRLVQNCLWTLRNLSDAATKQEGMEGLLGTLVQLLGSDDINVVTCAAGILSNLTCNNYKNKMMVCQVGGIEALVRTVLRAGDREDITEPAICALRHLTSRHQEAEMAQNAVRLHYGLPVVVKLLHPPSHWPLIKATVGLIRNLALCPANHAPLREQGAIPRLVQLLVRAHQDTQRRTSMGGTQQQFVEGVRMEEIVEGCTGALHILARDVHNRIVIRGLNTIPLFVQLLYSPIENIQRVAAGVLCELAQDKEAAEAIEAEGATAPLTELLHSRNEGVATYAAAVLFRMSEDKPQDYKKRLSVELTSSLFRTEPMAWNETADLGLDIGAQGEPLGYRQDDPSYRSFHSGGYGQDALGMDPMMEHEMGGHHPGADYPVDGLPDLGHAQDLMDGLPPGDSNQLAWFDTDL

The assay has as its target Catenin beta-1/Cadherin-1 (Homo sapiens, UniProt P12830+P35222). As to the kind of experiment: Inhibition of beta-catenin/E-cad signaling pathway in human COLO 320DM cells assessed as reduction in AXIN2. Type of assay: cell-based.

Regarding `O=C(O)CCCn1c2ccccc2c2nc3nonc3nc21`, the IC50 – broadly, the concentration that inhibits the measured activity by half – was 170 µM.
